From PubChem BioAssay AID2650 (Broad Institute, 2010)
The list shows a part of the results, in another mix than the full data. Some salts and complexes are drawn in separate pieces, as the source files them; their charges need not balance. Calls of active or inactive are those of the source.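 Rule for the calls: active = more than half of replicates show inhibition above 20%; inconclusive = some but at most half of replicates above 20% inhibition; inactive = no replicate shows inhibition above 20%.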

The chains behind the UniProt entries cited, without tags or fusion partners.
UniProt P49840, whole entry: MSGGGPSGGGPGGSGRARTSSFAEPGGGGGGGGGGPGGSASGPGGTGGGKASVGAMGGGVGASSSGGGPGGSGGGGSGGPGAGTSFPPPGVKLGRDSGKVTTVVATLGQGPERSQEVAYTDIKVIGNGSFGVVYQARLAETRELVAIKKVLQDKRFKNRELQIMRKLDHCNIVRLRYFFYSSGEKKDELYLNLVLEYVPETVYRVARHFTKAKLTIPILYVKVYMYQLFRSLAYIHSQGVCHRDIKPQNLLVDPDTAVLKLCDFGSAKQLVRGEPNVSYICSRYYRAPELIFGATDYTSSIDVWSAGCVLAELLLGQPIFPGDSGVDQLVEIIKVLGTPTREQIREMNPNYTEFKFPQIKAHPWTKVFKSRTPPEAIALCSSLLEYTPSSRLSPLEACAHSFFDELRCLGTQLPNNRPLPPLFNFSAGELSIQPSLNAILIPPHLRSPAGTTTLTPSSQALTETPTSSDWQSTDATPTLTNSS

Each compound was assayed against Glycogen synthase kinase-3 alpha (Homo sapiens) (UniProt P49840) (assay: blockers of GSK3A enzyme activity – biochemical, luminescence, cell-free homogeneous, HTS, primary screen (AID 2650;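 note: GST-tagged GSK-3 alpha with peptide substrate and 25 µM ATP; 0% = DMSO neutral wells and 100% = GW8510 positive control wells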)). Settings: GSK-3 alpha kinase, ADP-Glo luminescence, 60 min; at 10 µM; hits give high values.
`CN(C)C(=O)c1c([N+](=O)[O-])cc([N+](=O)[O-])cc1[N+](=O)[O-]` was tested, and the inhibition was inactive: -0.202%. For `COc1ccccc1OP(C)(=O)Nc1ccccc1Br` (stereo unspecified), the inhibition was inactive: -6.8%. `CC(C)(C)c1ccc(OP(C)(=O)O)cc1` was tested, and the inhibition was inactive: -2.24%. In the case of `CP(=O)(Nc1ccc(Cl)cc1)Oc1ccc(F)cc1` (stereo unspecified), the inhibition is reported as inactive: -0.114%. In the case of `O=C(OCCCN1CCCC1)C(O)(c1ccccc1)C1CCCCC1` (stereo unspecified), the inhibition is reported as inactive: -2.16%. For `COc1ccccc1OP(C)(=O)Nc1c(C)n(C)n(-c2ccccc2)c1=O` (stereo unspecified), the inhibition was inactive: -0.876%. With `CCc1ccc(OP(C)(=O)Nc2cccnc2)cc1` (stereo unspecified) the inhibition was inactive: -3.11%. For `CP(=O)(Oc1ccccc1)N1CCOC1=O` (stereo unspecified), the inhibition was inactive: -2.33%. In the case of `CCN(CC)CC(O)COC(=O)C(O)(c1ccccc1)C1CCCCC1` (stereo unspecified), the inhibition is reported as inactive: -2.78%. With `CCOC(=O)c1ccc(NP(C)(=O)Oc2ccc(Cl)cc2)cc1` (stereo unspecified) the inhibition was inactive: -0.123%. For `CP(=O)(OC12CC3CC(CC(C3)C1)C2)OC12CC3CC(CC(C3)C1)C2`, the inhibition was inactive: -2.09%. With `Nc1ccc2c(ccc3cccnc32)n1.O=[N+]([O-])c1cc([N+](=O)[O-])c(O)c([N+](=O)[O-])c1` the inhibition was inactive: -0.482%. `CP(=O)(Nc1ccc(Cl)cc1Cl)Oc1ccccc1` (stereo unspecified) was tested, and the inhibition was inactive: -1.42%. For `CP(=O)(OCCOc1ccccc1)OCCOc1ccccc1`, the inhibition was inactive: -3.25%. For `COc1ccccc1OP(C)(=O)Nc1ccc(C)c(C)c1` (stereo unspecified), the inhibition was inactive: -1.17%. In the case of `COc1ccc(OP(C)(=O)Nc2ccccc2Br)cc1` (stereo unspecified), the inhibition is reported as inactive: -2.15%. `Cc1cc(C)cc(OP(C)(=O)Nc2cccc(C(F)(F)F)c2)c1` (stereo unspecified) was tested, and the inhibition was inactive: 9.83%. For `COc1ccccc1OP(C)(=O)Nc1ccc(C)cc1C` (stereo unspecified), the inhibition was inactive: 0.654%. For `CP(=O)(Nc1ccccn1)Oc1ccccc1` (stereo unspecified), the inhibition was inactive: -0.475%. With `CCc1ccc(OP(C)(=O)O)cc1` the inhibition was inactive: -1.42%. `Cc1c(NP(C)(=O)Oc2ccc(C(C)C)cc2)c(=O)n(-c2ccccc2)n1C` (stereo unspecified) was tested, and the inhibition was inactive: -0.248%. With `O=[N+]([O-])c1cc([N+](=O)[O-])c(Nc2ccccn2)c([N+](=O)[O-])c1` the inhibition was inactive: 0.64%. `COc1ccc(OP(C)(=O)Nc2ccccn2)cc1` (stereo unspecified) was tested, and the inhibition was inactive: -5.85%. In the case of `CN(C)CCOC(=O)C(O)(c1ccccc1)C1CCCC1` (stereo unspecified), the inhibition is reported as inactive: -2.95%. `COc1ccccc1OP(C)(=O)Nc1ccc(Br)cc1` (stereo unspecified) was tested, and the inhibition was inactive: -1.2%. In the case of `COc1ccc2c(c1O)-c1c(O)c(OC)cc3c1[C@H](C2)[N+](C)(C)CC3.O=[N+]([O-])c1cc([N+](=O)[O-])c([O-])c([N+](=O)[O-])c1[O-]`, the inhibition is reported as inactive: -2.87%. With `O=C(OC1CN2CCC1CC2)c1ccc([N+](=O)[O-])cc1` (stereo unspecified) the inhibition was inactive: -2.13%. For `O=C(OCCN1CCN(CCOCc2ccccc2)CC1)C(O)(c1ccccc1)c1ccccc1`, the inhibition was inactive: -1.28%. `CP(=O)(Nc1ccccc1F)Oc1ccccc1` (stereo unspecified) was tested, and the inhibition was inactive: 0.034%. In the case of `CC(C)c1ccc(OP(C)(=O)Nc2ccc(SC(F)(F)F)cc2)cc1` (stereo unspecified), the inhibition is reported as inactive: -0.367%. For `CP(=O)(Nc1ccccc1)Oc1ccc(F)cc1` (stereo unspecified), the inhibition was inactive: -0.475%. `CCCCCOc1ccc(NP(C)(=O)Oc2ccc(Cl)cc2Cl)cc1` (stereo unspecified) was tested, and the inhibition was inactive: -2.16%. With `O=[N+]([O-])c1cc([N+](=O)[O-])c(OC2CCCCC2O)c([N+](=O)[O-])c1` (stereo unspecified) the inhibition was inactive: 6.41%. For `CCN(CC)CCCOC(=O)C(O)(c1ccccc1)C1CCCCC1` (stereo unspecified), the inhibition was inactive: -1.13%. In the case of `CCOC(=O)c1ccc(NP(C)(=O)Oc2ccc(F)cc2)cc1` (stereo unspecified), the inhibition is reported as inactive: -3.9%. `COc1ccc(OP(C)(=O)Nc2ccc(SC(F)(F)F)cc2)cc1` (stereo unspecified) was tested, and the inhibition was inactive: -0.945%. `O=[N+]([O-])c1ccc(OP2(=O)COCCO2)cc1` (stereo unspecified) was tested, and the inhibition was inactive: -2.73%. `O=[N+]([O-])c1cc([N+](=O)[O-])c(NCC2CCS(=O)(=O)C2)c([N+](=O)[O-])c1` (stereo unspecified) was tested, and the inhibition was inactive: 3.15%. With `CN(C)CCOC(=O)C(O)(c1ccccc1)C1CCCCC1` (stereo unspecified) the inhibition was inactive: 0.356%. `COc1ccc(NP(C)(=O)Oc2ccccc2OC)cc1` (stereo unspecified) was tested, and the inhibition was inactive: -1.29%. With `COc1ccc(OP(C)(=O)Nc2cccc(Br)c2)cc1` (stereo unspecified) the inhibition was inactive: -2.88%. In the case of `Cc1ccccc1NP(C)(=O)Nc1ccccc1C`, the inhibition is reported as inactive: 1.74%. With `CP(=O)(Nc1ccc2c(c1)OCCO2)Oc1ccccc1` (stereo unspecified) the inhibition was inactive: -2.56%. `CCOP(C)(=S)SCC(=O)NC(C)(CC)C(=O)O` (stereo unspecified) was tested, and the inhibition was inactive: -1.54%. `CP(=O)(Nc1ccc(SC(F)(F)F)cc1)Oc1ccc(F)cc1` (stereo unspecified) was tested, and the inhibition was inactive: -6.01%. `Cc1nc2ccc3ccccc3c2s1.O=[N+]([O-])c1cc([N+](=O)[O-])c(O)c([N+](=O)[O-])c1` was tested, and the inhibition was inactive: -0.612%. In the case of `O=[N+]([O-])c1cc([N+](=O)[O-])c(-c2cnn(-c3ccccc3)c2)c([N+](=O)[O-])c1`, the inhibition is reported as inactive: -1.62%. For `O=[N+]([O-])c1cc([N+](=O)[O-])c(-n2nnc3ccccc32)c([N+](=O)[O-])c1`, the inhibition was inactive: -3%. In the case of `CCCOc1ccc(NP(C)(=O)Oc2ccc(Cl)cc2)cc1` (stereo unspecified), the inhibition is reported as inactive: -0.421%. `CP(=O)(Nc1ccc(SC(F)(F)F)cc1)Oc1ccccc1` (stereo unspecified) was tested, and the inhibition was inactive: -2.32%. `COc1ccccc1OP(C)(=O)Nc1c(C)cccc1C` (stereo unspecified) was tested, and the inhibition was inactive: -1.48%. With `CN1CCCCC1COC(=O)C1(O)c2ccccc2CCc2ccccc21` (stereo unspecified) the inhibition was inactive: 1.47%. For `CCOC(=O)C(CC)C1=NC(C)(C)Cc2ccccc21.O=[N+]([O-])c1cc([N+](=O)[O-])c(O)c([N+](=O)[O-])c1` (stereo unspecified), the inhibition was inactive: -3.83%. With `CC1=C2N=C(C=C3N=C(C(C)=C4[N-][C@@](C)([C@@H]5N=C1[C@](C)(CCC(=O)NC[C@@H](C)OP(=O)([O-])O[C@H]1[C@@H](O)[C@@H](n6cnc7cc(C)c(C)cc76)O[C@@H]1CO)[C@H]5CC(N)=O)[C@@](C)(CC(N)=O)[C@@H]4CCC(N)=O)[C@@](C)(CC(N)=O)[C@@H]3CCC(N)=O)C(C)(C)[C@@H]2CCC(N)=O.[C-]#N.[Co+3]` the inhibition was inactive: -3.9%. With `O=[N+]([O-])c1cc([N+](=O)[O-])c(Nc2nnnn2CCO)c([N+](=O)[O-])c1` the inhibition was inactive: 1.02%. For `CC1=NCCc2c1[nH]c1ccccc21.O=[N+]([O-])c1cc([N+](=O)[O-])c(O)c([N+](=O)[O-])c1`, the inhibition was inactive: -1.18%. In the case of `O=C(O)c1cccc(Nc2c([N+](=O)[O-])cc([N+](=O)[O-])cc2[N+](=O)[O-])c1`, the inhibition is reported as inactive: 0.165%. `Cc1ccc(C)c(NP(C)(=O)Oc2ccccc2)c1` (stereo unspecified) was tested, and the inhibition was inactive: -1.94%. `Cc1cc(C)cc(OP(C)(=O)Nc2ccccn2)c1` (stereo unspecified) was tested, and the inhibition was inactive: -2.28%. With `CP(=O)(Nc1cccc(Br)c1)Oc1ccccc1` (stereo unspecified) the inhibition was inactive: 0.334%. In the case of `CCOC(=O)c1ccc(NP(C)(=O)Oc2cc(C)cc(C)c2)cc1` (stereo unspecified), the inhibition is reported as inactive: 1.02%. For `Cc1cc(C)cc(OP(C)(=O)Nc2ccc(C)cc2C)c1` (stereo unspecified), the inhibition was inactive: -0.942%. With `COc1ccccc1OP(C)(=O)Nc1cccc(Br)c1` (stereo unspecified) the inhibition was inactive: 1.26%. With `CCN(CC)CCCOC(=O)C(O)(c1ccccc1)c1ccccc1` the inhibition was inactive: -2.22%. In the case of `Cc1cc(C)cc(OP(C)(N)=O)c1` (stereo unspecified), the inhibition is reported as inactive: -3.39%. For `COc1ccc(OP(C)(=O)Nc2cccc(F)c2)cc1` (stereo unspecified), the inhibition was inactive: 0.479%. With `COc1ccccc1OP(C)(=O)Nc1cc(Cl)ccc1C` (stereo unspecified) the inhibition was inactive: 0.815%. `Cc1ccc(NP(C)(=O)Oc2ccccc2)c(C)c1` (stereo unspecified) was tested, and the inhibition was inactive: 0.763%. In the case of `COc1ccccc1OP(C)(=O)Nc1ccc(C)cc1` (stereo unspecified), the inhibition is reported as inactive: 0.124%. `CCOC(=O)c1ccc(NP(C)(=O)Oc2ccccc2)cc1` (stereo unspecified) was tested, and the inhibition was inactive: -4.74%. `O=[N+]([O-])c1ccc2c(c1)C=Nc1ccccc1O2` was tested, and the inhibition was inactive: 0.027%. In the case of `CC(C)(C)c1ccc(OP(C)(=O)Nc2ccc(SC(F)(F)F)cc2)cc1` (stereo unspecified), the inhibition is reported as inactive: -1.16%. In the case of `O=[N+]([O-])c1cc([N+](=O)[O-])c(Nc2cccnc2)c([N+](=O)[O-])c1`, the inhibition is reported as inactive: 2.51%. `CP(=O)(Nc1ccccc1Br)Oc1ccccc1` (stereo unspecified) was tested, and the inhibition was inactive: -2.34%. `COc1ccccc1OP(C)(=O)Nc1ccccc1` (stereo unspecified) was tested, and the inhibition was inactive: -1.69%. With `CP(=S)(Nn1cnnc1)Oc1ccccc1` (stereo unspecified) the inhibition was inactive: -2.54%. `CP(=O)(Nc1ccccn1)Oc1ccc(Cl)cc1` (stereo unspecified) was tested, and the inhibition was inactive: -0.0825%. In the case of `CCOC(=O)c1ccc(NP(C)(=O)Oc2ccc(OC)cc2)cc1` (stereo unspecified), the inhibition is reported as inactive: 0.255%. `O=[N+]([O-])c1cc([N+](=O)[O-])c(O)c([N+](=O)[O-])c1.c1ccc(Oc2ccncc2)cc1` was tested, and the inhibition was inactive: -2.52%. In the case of `CCOP(C)(=S)SCC(=O)NC(C)C(=O)O` (stereo unspecified), the inhibition is reported as inactive: 0.296%. `Cc1cc(C)cc(OP(C)(=O)Nc2ccc(SC(F)(F)F)cc2)c1` (stereo unspecified) was tested, and the inhibition was inactive: -2.43%. In the case of `CP(=O)(NC(=O)Nc1ccccc1)Oc1ccccc1` (stereo unspecified), the inhibition is reported as inactive: -1.08%. For `CCc1ccc(OP(C)(=O)N2CCN(c3ccc([N+](=O)[O-])cc3)CC2)cc1` (stereo unspecified), the inhibition was inactive: -0.106%. For `CP(=O)(Oc1ccccc1)OC(c1ccccc1)C(F)(F)F` (stereo unspecified), the inhibition was inactive: -0.254%. For `Cc1cccc(C)c1OP(C)(=O)Nc1ccc(SC(F)(F)F)cc1` (stereo unspecified), the inhibition was inactive: -2.19%. For `CP(=O)(Nc1ccc(SC(F)(F)F)cc1)Oc1ccc(Cl)cc1` (stereo unspecified), the inhibition was inactive: -2.31%.
